Laboratory results from patent publication US20070020272A1, “Indirectly linked photosensitizer immunoconjugates, processes for the production thereof and methods of use thereof” (priority 2003, published 2007).

Test system: NIH:OVCAR-5 cells
Assay: PDT efficacy in xenograft animal model of intra-peritoneal epithelial ovarian carcinoma
Format: in vivo, athymic Swiss female nude mice
Details: 20 J light i.p. 24 hours later, sacrifice day 21, FIG. 1
Protocol: PICs of the present invention comprising the tumoricidal antibody C225 indirectly linked to the photosensitizer CMA (referred to here as “C225-CMA”), were evaluated for efficacy in PDT using a xenograft animal model of intra-peritoneal epithelial ovarian carcinoma. Results obtained in this model system are reasonably predictive of treatment efficacy for the human condition. The following groups were analyzed:
Group 1: No Treatment; Group 2: Treatment with indirectly linked C225-CMA and activation with high a high light dose (high fluence rate); Group 3: Treatment with indirectly linked C225-CMA and activation with a low light dose (low fluence rate).
To test the effect of the PICs of the present invention in vivo, a known animal model system was utilized (Molpus et al., 1996a). This xenograft model of intra-peritoneal epithelial ovarian carcinoma has been noted to be desirable for measurement of the effects of PDT (Molpus et al., 1996a). This model manifests tumor derived from human ovarian carcinoma cells with all of the inherent biological properties of human disease. As has been previously described, the model is characterized, as in human patients, by diffuse solid tumor, ascites, parenchymal invasion, lymph-vascular space invasion, and neovascularization (Molpus et al., 1996a). […]

Substance: C225-CMA
- tumor burden as compared to the no treatment group (Group 2: 1 mg/kg PIC on day 10 and 20 after tumor cell injection, high fluence rate): reduced tumor burden
- tumor burden as compared to the no treatment group (Group 3: 1 mg/kg PIC on day 10 and 20 after tumor cell injection, low fluence rate, p<0.02): significantly reduced tumor burden
